This is a selection; strong and weak results do not stand in their true shares. Activity calls are given as the source filed them.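 Rule for the calls: active = percent inhibition above the cutoff of mean plus 3 SD of all tested compounds, set per screening campaign (cut at about 20% in these data); inactive = the rest.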

Chains of the proteins cited; added tags and fusions are not shown.
UniProt Q9Y5X4, whole entry: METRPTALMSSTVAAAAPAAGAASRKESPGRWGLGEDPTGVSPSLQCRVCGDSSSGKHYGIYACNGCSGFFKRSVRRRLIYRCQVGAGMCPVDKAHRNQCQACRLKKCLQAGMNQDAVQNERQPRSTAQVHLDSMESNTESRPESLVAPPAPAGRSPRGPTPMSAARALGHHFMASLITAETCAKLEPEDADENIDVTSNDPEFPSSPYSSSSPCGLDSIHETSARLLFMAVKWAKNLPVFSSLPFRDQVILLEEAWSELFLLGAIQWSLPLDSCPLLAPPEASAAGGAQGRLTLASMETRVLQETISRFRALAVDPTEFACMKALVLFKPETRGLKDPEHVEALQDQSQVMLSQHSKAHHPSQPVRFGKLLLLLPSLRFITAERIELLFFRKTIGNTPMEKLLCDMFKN

The test addresses Photoreceptor-specific nuclear receptor (Homo sapiens) (UniProt Q9Y5X4). The test can be described thus: disruption of NR2E3 corepressor interaction – biochemical, TR-FRET, GST-NR2E3, biotin-RetCOR, NR2E3 agonist project, primary screen (AID 2300).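 Note: 0% = DMSO wells and 100% = biotin wells as full block of FRET.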 The following applies: 1536-well, at 4.78 µM, active compounds read high. The essentials:
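System: GST-tagged NR2E3 plus biotinylated RetCOR corepressor; Amount: 1.35 nM GST-tagged NR2E3 final; Dosing: single nominal compound dose of 4.8 µM; Schedule: 5 h incubation at 4 °C; Technique: TR-FRET with europium anti-GST and streptavidin-D2, 340 nm excitation; Controls: biotin wells as high control, 0.6% DMSO wells as low control.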
Background: In TR-FRET formats the signal depends on donor and acceptor labels being close together.
In the case of `COc1ccc(C(=O)NCC2(N3CCCCC3)CCCCC2)cc1`, the inhibition of corepressor binding is inactive: 2.51%.
In the case of `CC(C)(C)OC(=O)N1CCC(N(C(=O)c2ccccc2)c2ccc(F)cc2)CC1`, the inhibition of corepressor binding is inactive: 1.6%.
As for `COc1ccc(C(=O)NCC2(N3CCCCC3)CCCCC2)c(OC)c1OC`, the inhibition of corepressor binding was inactive: 1.8%.
Under `O=C(NCC1(N2CCCCC2)CCCCC1)c1ccc(=O)[nH]c1` stands inactive: -3.05%.
In the case of `O=C(NCC1(N2CCCCC2)CCCCC1)c1cccs1`, the inhibition of corepressor binding is inactive: -1.22%.
For `CSc1ccccc1C(=O)NCC1(N2CCCCC2)CCCCC1` the value was inactive: 2.3%.
As for `O=C(NCC1(N2CCCCC2)CCCCC1)c1ccc(Cl)nc1`, the inhibition of corepressor binding was inactive: 3.07%.
Under `Cc1cc(C)cc(N(C(=O)c2ccccc2)C2CCN(C(=O)OC(C)(C)C)CC2)c1` stands inactive: 3.32%; under `O=C(NCC1(N2CCOCC2)CCCCC1)c1cc2ccccc2o1`, inactive: 2.43%.
Under `O=C(NCC1(N2CCCCC2)CCCCC1)c1ccc(Cl)s1` stands inactive: 0.91%; under `N#CC1(Nc2ccccc2)CCN(Cc2ccccc2)CC1`, inactive: -1.44%; under `O=C(OC1CN2CCC1CC2)C1c2ccccc2Oc2ccccc21` (stereo unspecified), inactive: 5.21%.
Under `COc1ccc(Cl)cc1C(=O)NCC1(N2CCOCC2)CCCCC1` stands inactive: 0.24%; under `CCOC(=O)N1CCC(Nc2ccc(OC)cc2)CC1`, inactive: 0.38%; under `CCOc1ccc(C)cc1CN(CCCl)CCCl`, inactive: 3.01%.
Consider `O=C(NCC1(N2CCCCC2)CCCCC1)c1ccc(F)cc1`, for which the inhibition of corepressor binding was inactive: -0.36%.
Under `COc1ccc(NC2CCN(CCc3ccccc3)CC2)c(OC)c1` stands inactive: -0.09%.
With `CCOC(=O)N1CCC(Nc2cccc(C)c2)CC1`, the inhibition of corepressor binding was inactive: -1.95%.
As to `Cc1ccc(OCC(C)C)c(CN(CCCl)CCCl)c1`, the inhibition of corepressor binding was inactive: 1.06%.
For `O=C(NCC1(N2CCCCC2)CCCCC1)c1ccc(OC(F)F)cc1` the value was inactive: 3.64%.
In the case of `CCN1CCC(Nc2ccc(Cl)cc2)CC1`, the inhibition of corepressor binding was inactive: 1.53%.
As to `N#CC1(Nc2ccccc2)CCN(CCc2ccccc2)CC1`, the inhibition of corepressor binding is inactive: -0.35%.
With `O=C(NCC1(N2CCCCC2)CCCCC1)c1cccc([N+](=O)[O-])c1`, the inhibition of corepressor binding was inactive: -2.93%.
Under `O=C(NCC1(N2CCCCC2)CCCCC1)c1cccc(C(F)(F)F)c1` stands inactive: -1.1%.
As for `O=C(NCC1(N2CCOCC2)CCCCC1)c1cc(=O)[nH]c2ccccc12`, the inhibition of corepressor binding is inactive: 3.17%.
For `COc1cc(C(=O)NCC2(N3CCCCC3)CCCCC2)ccc1OC(F)F` the value was inactive: -1.09%; for `COc1ccc(NC2CCN(C(=O)OC(C)(C)C)CC2)cc1`, inactive: -1.88%.
Consider `CN1CCN(CCOC(=O)C(O)(c2ccccc2)c2ccccc2)CC1`, for which the inhibition of corepressor binding was inactive: -1.02%.
Consider `CC(C)c1ccc(NC2CCN(C(=O)OC(C)(C)C)CC2)cc1`, for which the inhibition of corepressor binding was inactive: -3.63%.
Consider `COc1ccc(CN(CCCl)CCCl)cc1Cl`, for which the inhibition of corepressor binding was inactive: -1.93%.
As to `CN(C)c1cccc(C(=O)NCC2(N3CCCCC3)CCCCC2)c1`, the inhibition of corepressor binding was inactive: 4.15%.
Regarding `COc1cc(OC)c(C(=O)NCC2(N(C)C)CCCCC2)cc1OC`, the inhibition of corepressor binding is inactive: 3%.
Consider `CN1CCC(Nc2cccc(F)c2)CC1`, for which the inhibition of corepressor binding is inactive: -0.62%.
In the case of `O=C(NCC1(N2CCCCC2)CCCCC1)c1cncc(Br)c1`, the inhibition of corepressor binding was inactive: -1.62%.
Under `O=C(NCC1(N2CCOCC2)CCCCC1)c1cc(Br)ccc1Cl` stands inactive: 4.42%; under `COc1ccc(C(=O)NCC2(N3CCOCC3)CCCCC2)cc1OC`, inactive: 5.13%; under `CCOC(=O)N1CCC(Nc2ccc(C)cc2)CC1`, inactive: 2.39%.
Consider `N/C(=N\O)c1c(N)no[n+]1[O-]`, for which the inhibition of corepressor binding was inactive: -1.45%.
Under `CCc1cc(C(=O)NCC2(N3CCCCC3)CCCCC2)sc1C` stands inactive: 0.84%; under `O=C(OC1CN2CCC1CC2)C1c2ccccc2C=Cc2ccccc21` (stereo unspecified), inactive: -2.33%; under `N#Cc1ccc(C(=O)NCC2(N3CCCCC3)CCCCC2)cc1`, inactive: 4.62%.
Under `CC(C)(C)OC(=O)N1CCC(N(C(=O)c2ccccc2)c2ccc(Cl)cc2)CC1` stands inactive: -2.33%; under `CN(C)C1(CNC(=O)c2cccc(C#N)c2)CCCCC1`, inactive: -1.76%.
As for `c1ccc(CN2CCC(Nc3ccccc3)CC2)cc1`, the inhibition of corepressor binding was inactive: 0.29%.
With `CCCN1CCC(Nc2cc(OC)cc(OC)c2)CC1`, the inhibition of corepressor binding was inactive: 4.48%.
For `COc1cc(OC)cc(C(=O)NCC2(N3CCCCC3)CCCCC2)c1` the value was inactive: -2.38%; for `Cc1ccc(C(=O)NCC2(N3CCCCC3)CCCCC2)o1`, inactive: -4.77%.
For `Fc1ccccc1NC1CCN(Cc2ccccc2)CC1` the value was inactive: 1.42%; for `CCN1CCC(Nc2cccc(F)c2)CC1`, inactive: -4.25%.
For the compound `O=C(NCC1(N2CCCCC2)CCCCC1)c1ccco1`, the inhibition of corepressor binding is inactive: 0.2%.
Under `CN(C)c1ccc(C(=O)NCC2(N3CCCCC3)CCCCC2)cc1` stands inactive: -1.09%; under `CCOc1ncccc1C(=O)NCC1(N2CCOCC2)CCCCC1`, inactive: 2.5%.
As to `CN1CCC(Nc2ccc(F)c(Cl)c2)CC1`, the inhibition of corepressor binding is inactive: -0.88%.
Under `CC(C)(C)OC(=O)N1CCC(Nc2ccccc2)CC1` stands inactive: -1.09%; under `O=C(O)C1(Nc2ccccc2)CCN(Cc2ccccc2)CC1`, inactive: -4.14%.
Under `CCCOc1ccc(C(=O)NCC2(N(C)C)CCCCC2)cc1` stands inactive: 3.04%; under `COc1cccc(C(=O)N(c2cc(C)cc(C)c2)C2CCN(C(=O)OC(C)(C)C)CC2)c1`, inactive: 2.86%.
For `COc1cc(OC)cc(C(=O)NCC2(N3CCOCC3)CCCCC2)c1` the value was inactive: 2.27%.
Consider `CCC(CO)(C(=O)OC1CN2CCC1CC2)c1ccccc1` (stereo unspecified), for which the inhibition of corepressor binding is inactive: -2.91%.
For the compound `CN1CCC(Nc2ccc(Cl)cc2)CC1`, the inhibition of corepressor binding is inactive: 3.48%.
For `CCCOc1ccc(C)cc1CN(CCCl)CCCl` the value was inactive: -2.26%.

The values are drawn from PubChem BioAssay AID2300 (The Scripps Research Institute Molecular Screening Center, 2010).
